Measurements from patent publication US20150050663A1, “Optimal Gonadotropin Dosage” (Oslo Universitetssykehus HF, priority 2012, published 2015).

Experiments:
[1] = tested on: peripheral blood monocytes; assay: uptake of fluorochrome-conjugated gonadotropins by blood-derived leukocytes (FACS); type: cell-based, human; conditions: FACS with cell lineage markers
Procedure: Blood-derived monocytes are enriched by density gradient centrifugation. Cells are split in two and incubated for 2 hours in the presence of FITC-conjugated FSH, at 37° C. or on ice. Cells are labelled with fluorochrome-conjugated monocyte marker (e.g. anti-CD14-PerCP antibody, as described above) and analyzed with multi-colour flow cytometry (FACS).
Internalization of FSH is estimated as mean fluorescence intensity (MFI) of the cell population expressing monocyte markers. Unspecific binding (background) is estimated as MFI for cells incubated on ice
We incubated blood-derived leukocytes with fluorochrome conjugates of human recombinant and urine-derived gonadotropins (FSH, LH, and hCG). Cells were analyzed with flow cytometry (FACS) with simultaneous detection of multiple cell lineage markers.

[2] = tested on: monocytes and ovarian granulosa cells; assay: co-culture of monocytes and ovarian granulosa cells with fluorochrome-conjugated hCG; type: cell-based; conditions: monocytes co-cultured with ovarian granulosa cells, FIG. 1D
Text: Internalized gonadotropins co-localized with internalized dextran, indicating lysosomatic targeting (FIG. 1C). In order to assess the effect of gonadotropin internalization in vitro, monocytes and ovarian granulosa cells were co-cultured in the presence of fluorochrome-conjugated hCG.

Substance	binding of fluorochrome-conjugated gonadotropin to leukocytes [1]	sequestration of labelled hCG in co-culture [2]
chorionic gonadotropin [hCG]	bound to a sub-population of leukocytes bearing monocyte markers	removed from granulosa cells and accumulated by differentially labelled monocytes
follicle-stimulating hormone [FSH]	bound to a sub-population of leukocytes bearing monocyte markers	
luteinizing hormone [LH]	bound to a sub-population of leukocytes bearing monocyte markers	
